# Source: publication PMC8881063 (Journal of Enzyme Inhibition and Medicinal Chemistry, 2022)
# Protein sequences, listed by entry. Tags and fused reporters are not part of them.
# UniProt P27338, whole entry: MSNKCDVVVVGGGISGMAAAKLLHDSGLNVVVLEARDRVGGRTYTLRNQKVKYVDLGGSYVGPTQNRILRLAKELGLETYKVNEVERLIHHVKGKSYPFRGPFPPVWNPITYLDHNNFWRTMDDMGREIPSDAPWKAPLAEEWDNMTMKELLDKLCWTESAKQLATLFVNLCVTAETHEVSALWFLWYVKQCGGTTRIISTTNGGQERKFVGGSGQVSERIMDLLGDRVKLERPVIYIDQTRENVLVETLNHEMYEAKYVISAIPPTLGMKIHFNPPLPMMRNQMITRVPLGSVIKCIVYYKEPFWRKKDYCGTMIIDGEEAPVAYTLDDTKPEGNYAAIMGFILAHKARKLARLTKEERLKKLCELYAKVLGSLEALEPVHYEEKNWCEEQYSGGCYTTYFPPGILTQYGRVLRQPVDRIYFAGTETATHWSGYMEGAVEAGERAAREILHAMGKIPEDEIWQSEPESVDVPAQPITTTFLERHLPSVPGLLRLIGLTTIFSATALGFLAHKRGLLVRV
# Biological target: MAO-B (Homo sapiens, UniProt P27338)
# Experiment: hMAO-B inhibition, spectrophotometric assay
smiles,measurement,setting,value
"O=C1/C(=C/c2ccc(O)cc2)Oc2cc(O)ccc21 [Hispidol, hispidol, reference compound]",IC50,,> 10 µM
same,Selectivity index for inhibition of MAO-B,IC50 MAO-A divided by IC50 MAO-B,<0.53
same,inhibition at 10 µM,read-out: MAO-B % Inhibition,34.6%
